# Measurements from EP4834897A1, “COMPOUNDS WITH TWO AZAHETEROCYCLES SUBSTITUTED ISOINDOLINONE SKELETON AND USES THEREOF” (dated 2026).
# Amino acid sequences for entries named in this document (tags omitted).
# UniProt Q96SW2, whole entry: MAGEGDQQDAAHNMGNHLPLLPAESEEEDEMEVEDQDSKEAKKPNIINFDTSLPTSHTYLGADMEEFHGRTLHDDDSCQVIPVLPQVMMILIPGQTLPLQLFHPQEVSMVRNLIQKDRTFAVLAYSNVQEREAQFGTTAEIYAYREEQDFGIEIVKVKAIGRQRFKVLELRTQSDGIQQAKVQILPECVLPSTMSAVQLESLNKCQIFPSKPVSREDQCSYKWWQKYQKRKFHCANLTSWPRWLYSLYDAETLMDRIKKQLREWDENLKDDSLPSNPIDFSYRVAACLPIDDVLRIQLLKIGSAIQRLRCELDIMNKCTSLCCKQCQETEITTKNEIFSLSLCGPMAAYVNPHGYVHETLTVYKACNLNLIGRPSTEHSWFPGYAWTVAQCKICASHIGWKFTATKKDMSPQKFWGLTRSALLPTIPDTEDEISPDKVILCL
# UniProt P48729, whole entry: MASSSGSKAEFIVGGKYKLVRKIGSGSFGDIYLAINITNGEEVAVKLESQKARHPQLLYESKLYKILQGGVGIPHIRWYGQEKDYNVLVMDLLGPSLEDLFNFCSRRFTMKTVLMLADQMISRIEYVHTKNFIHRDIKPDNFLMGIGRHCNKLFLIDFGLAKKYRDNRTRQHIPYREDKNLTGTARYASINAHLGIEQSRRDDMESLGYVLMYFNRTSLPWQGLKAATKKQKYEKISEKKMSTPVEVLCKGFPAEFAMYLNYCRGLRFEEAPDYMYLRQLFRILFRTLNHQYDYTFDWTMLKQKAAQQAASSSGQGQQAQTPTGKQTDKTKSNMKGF
# UniProt P30291, whole entry: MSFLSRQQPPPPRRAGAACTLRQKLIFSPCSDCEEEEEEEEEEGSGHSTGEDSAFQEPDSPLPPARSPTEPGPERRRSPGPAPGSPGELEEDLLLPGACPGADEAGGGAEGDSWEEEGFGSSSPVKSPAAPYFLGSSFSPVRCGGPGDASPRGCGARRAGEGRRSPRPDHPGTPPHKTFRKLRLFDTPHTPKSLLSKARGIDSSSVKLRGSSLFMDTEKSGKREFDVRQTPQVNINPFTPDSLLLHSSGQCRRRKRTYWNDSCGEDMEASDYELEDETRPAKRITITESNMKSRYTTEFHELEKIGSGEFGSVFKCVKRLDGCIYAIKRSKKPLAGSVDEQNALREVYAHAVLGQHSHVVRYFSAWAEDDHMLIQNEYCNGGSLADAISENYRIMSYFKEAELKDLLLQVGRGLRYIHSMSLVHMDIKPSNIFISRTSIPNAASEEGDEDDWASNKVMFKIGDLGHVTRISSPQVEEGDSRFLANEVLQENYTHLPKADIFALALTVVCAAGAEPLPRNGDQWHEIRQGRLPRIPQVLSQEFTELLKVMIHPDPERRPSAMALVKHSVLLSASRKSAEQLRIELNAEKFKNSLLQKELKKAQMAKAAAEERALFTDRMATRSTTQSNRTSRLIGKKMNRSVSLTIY
# UniProt Q9UKS7, whole entry: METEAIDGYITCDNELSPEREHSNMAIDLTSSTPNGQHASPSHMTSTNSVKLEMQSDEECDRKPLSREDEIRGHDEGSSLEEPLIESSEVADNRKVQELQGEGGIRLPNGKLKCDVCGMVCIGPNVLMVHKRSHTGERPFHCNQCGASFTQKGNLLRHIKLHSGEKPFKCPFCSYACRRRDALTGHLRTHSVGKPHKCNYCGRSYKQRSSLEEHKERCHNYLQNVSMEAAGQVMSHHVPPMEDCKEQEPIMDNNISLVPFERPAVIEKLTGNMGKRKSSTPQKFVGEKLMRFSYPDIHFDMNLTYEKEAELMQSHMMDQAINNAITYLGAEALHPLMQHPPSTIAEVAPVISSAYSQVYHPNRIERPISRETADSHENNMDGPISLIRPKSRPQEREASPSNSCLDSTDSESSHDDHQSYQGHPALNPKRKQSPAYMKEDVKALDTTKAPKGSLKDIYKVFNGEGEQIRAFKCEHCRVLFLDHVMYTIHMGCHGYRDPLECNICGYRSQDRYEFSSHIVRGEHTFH
# UniProt Q13422, whole entry: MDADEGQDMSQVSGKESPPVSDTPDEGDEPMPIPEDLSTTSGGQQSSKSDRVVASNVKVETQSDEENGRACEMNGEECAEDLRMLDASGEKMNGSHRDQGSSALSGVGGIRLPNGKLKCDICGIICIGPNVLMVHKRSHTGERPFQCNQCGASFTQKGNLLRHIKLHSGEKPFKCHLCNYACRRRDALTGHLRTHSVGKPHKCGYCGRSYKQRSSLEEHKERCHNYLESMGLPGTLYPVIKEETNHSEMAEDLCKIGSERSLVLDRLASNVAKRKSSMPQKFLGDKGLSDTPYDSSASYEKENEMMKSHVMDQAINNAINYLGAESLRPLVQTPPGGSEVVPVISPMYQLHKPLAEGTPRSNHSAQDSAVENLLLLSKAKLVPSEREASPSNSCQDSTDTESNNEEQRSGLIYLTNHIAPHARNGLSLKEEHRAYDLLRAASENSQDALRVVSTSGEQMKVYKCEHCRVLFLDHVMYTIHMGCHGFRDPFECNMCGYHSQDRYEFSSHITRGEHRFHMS
# UniProt Q9UKT9, whole entry: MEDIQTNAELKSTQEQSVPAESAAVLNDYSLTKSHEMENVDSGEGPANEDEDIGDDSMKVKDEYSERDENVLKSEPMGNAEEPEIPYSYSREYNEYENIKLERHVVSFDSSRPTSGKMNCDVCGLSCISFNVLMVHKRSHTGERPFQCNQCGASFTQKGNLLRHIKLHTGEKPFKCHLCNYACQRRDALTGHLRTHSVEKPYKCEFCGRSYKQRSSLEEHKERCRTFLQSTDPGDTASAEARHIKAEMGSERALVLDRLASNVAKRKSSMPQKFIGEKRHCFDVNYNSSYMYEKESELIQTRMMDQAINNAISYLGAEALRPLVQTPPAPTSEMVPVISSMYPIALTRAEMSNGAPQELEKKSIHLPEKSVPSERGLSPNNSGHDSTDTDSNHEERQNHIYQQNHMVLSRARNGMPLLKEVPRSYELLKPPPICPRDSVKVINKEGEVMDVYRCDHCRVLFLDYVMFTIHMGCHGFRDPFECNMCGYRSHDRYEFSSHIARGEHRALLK
# UniProt P15170, whole entry: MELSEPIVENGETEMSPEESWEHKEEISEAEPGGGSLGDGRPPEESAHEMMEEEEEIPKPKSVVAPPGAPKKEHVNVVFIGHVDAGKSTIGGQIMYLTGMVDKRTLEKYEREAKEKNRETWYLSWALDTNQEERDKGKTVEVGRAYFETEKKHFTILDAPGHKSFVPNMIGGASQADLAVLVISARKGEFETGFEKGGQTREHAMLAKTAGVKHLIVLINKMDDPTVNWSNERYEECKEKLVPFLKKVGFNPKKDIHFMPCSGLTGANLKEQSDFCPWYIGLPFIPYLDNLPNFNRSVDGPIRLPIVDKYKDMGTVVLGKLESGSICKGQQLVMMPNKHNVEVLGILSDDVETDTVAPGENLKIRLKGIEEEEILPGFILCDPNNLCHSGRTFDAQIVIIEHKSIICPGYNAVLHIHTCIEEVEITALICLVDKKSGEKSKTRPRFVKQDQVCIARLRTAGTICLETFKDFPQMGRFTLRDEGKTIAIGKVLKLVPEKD
# UniProt Q16531, whole entry partner: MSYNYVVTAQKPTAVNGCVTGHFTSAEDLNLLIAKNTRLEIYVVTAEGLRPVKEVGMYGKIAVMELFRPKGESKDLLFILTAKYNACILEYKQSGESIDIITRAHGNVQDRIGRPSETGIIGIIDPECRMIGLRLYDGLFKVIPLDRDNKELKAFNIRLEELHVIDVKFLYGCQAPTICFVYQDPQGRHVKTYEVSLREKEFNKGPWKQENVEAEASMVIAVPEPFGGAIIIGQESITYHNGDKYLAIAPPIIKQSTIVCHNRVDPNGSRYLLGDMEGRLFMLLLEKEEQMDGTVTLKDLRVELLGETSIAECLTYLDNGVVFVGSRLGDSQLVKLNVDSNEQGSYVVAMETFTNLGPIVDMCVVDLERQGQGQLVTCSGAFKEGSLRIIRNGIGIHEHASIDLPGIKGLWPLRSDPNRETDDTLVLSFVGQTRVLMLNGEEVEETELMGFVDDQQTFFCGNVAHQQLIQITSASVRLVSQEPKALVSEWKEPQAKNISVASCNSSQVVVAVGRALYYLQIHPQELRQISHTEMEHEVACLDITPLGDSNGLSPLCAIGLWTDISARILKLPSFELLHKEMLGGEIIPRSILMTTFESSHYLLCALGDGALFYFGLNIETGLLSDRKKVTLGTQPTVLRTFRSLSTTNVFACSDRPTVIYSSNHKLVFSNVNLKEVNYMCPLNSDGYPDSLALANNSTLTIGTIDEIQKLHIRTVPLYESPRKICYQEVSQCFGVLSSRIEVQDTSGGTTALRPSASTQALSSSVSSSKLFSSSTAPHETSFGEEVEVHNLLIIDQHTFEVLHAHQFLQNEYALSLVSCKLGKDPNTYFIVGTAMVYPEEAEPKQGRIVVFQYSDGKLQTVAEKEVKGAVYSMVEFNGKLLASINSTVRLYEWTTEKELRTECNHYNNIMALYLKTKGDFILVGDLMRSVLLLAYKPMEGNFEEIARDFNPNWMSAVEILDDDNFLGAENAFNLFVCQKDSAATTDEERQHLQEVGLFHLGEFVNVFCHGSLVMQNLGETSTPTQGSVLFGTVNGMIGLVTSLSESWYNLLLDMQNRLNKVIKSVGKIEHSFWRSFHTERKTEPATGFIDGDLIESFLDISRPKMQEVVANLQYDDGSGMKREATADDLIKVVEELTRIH
# What was measured:
# [1] = target: CRBN (Homo sapiens, UniProt Q96SW2); experiment: CRBN binding affinity by HTRF (CEREBLON BINDING kit); details: CRBN binding, HTRF; for Inhibition Rate at 0.5 µM (%): compound at 0.5 µM; for Inhibition Rate at 2 µM (%): compound at 2 µM
# [2] = system: Human myeloid monocytic leukemia cell (MV-4-11); experiment: Tumor cell proliferation inhibition (cell viability assay); details: MV-4-11 cells, 96 hours
# [3] = system: Human multiple myeloma cell (MM.1S); experiment: as above; details: MM.1S cells, 96 hours
# [4] = system: Human colon cancer cell (SW620); experiment: as above; details: SW620 cells, 96 hours
# [5] = system: Human acute T lymphocytic leukemia cell (Molt4); experiment: as above; details: Molt4 cells, 96 hours
# [6] = target: CK1α (Homo sapiens, UniProt P48729+Q96SW2); experiment: Western blot assay of substrate protein degradation in hPBMCs; details: 24 hours treatment, compounds at 50 nM and 500 nM (concentration behind the class not stated)
# [7] = target: WEE1 (Homo sapiens, UniProt P30291+Q96SW2); experiment: as above; details: 24 hours treatment, compounds at 50 nM and 500 nM (concentration behind the class not stated)
# [8] = target: IKZF2 (Homo sapiens, UniProt Q96SW2+Q9UKS7); experiment: as above; details: 24 hours treatment, compounds at 50 nM and 500 nM (concentration behind the class not stated)
# [9] = target: IKZF1 (Homo sapiens, UniProt Q13422+Q96SW2); experiment: as above; details: 24 hours treatment, compounds at 50 nM and 500 nM (concentration behind the class not stated)
# [10] = target: IKZF3 (Homo sapiens, UniProt Q96SW2+Q9UKT9); experiment: as above; details: 24 hours treatment, compounds at 50 nM and 500 nM (concentration behind the class not stated)
# [11] = target: GSPT1 (Homo sapiens, UniProt P15170+Q96SW2); experiment: as above; details: 24 hours treatment, compounds at 50 nM and 500 nM (concentration behind the class not stated)
# [12] = system: GM-CSF; experiment: Inflammatory cytokine release from PBMCs induced by PMA + Ionomycin (flow cytometry CBA); details: 24 h
# [13] = system: IL-2; experiment: Inflammatory cytokine release from PBMCs induced by PHA (flow cytometry CBA); details: PBMCs, PHA 1 µg/mL, 24 h
Inhibition Rate at 0.5 µM (%) [1],Inhibition Rate at 2 µM (%) [1],Structure (SMILES),Inhibition Rate at 10 nM (%) [2],Inhibition Rate at 500 nM (%) [2],Inhibition Rate at 10 nM (%) [3],Inhibition Rate at 500 nM (%) [3],Inhibition Rate at 10 nM (%) [4],Inhibition Rate at 500 nM (%) [4],Inhibition Rate at 10 nM (%) [5],Inhibition Rate at 500 nM (%) [5],substrate protein remaining % (CK1a) [6],substrate protein remaining % (WEE1) [7],substrate protein remaining % (IKZF2) [8],substrate protein remaining % (IKZF 1) [9],substrate protein remaining % (IKZF3) [10],substrate protein remaining % (GSPT1) [11],Inhibition Rate (%) GM-CSF ([12]; 0.1 µM),Inhibition Rate (%) GM-CSF ([12]; 1 µM),Inhibition Rate (%) IL-2 ([13]; 0.1 µM),Inhibition Rate (%) IL-2 ([13]; 1 µM)
a6 (60% < a6 ≤ 70%),a8 (80% < a8 ≤100%),CC1(C)CCC(C(=O)N2CCN(C3CCN(Cc4cc5c(cc4F)C(=O)N(C4CCC(=O)NC4=O)C5)CC3(F)F)CC2)=C(c2ccc(Cl)cc2)C1 (stereo not shown),1a9 (70% ≤ 1a9 < 80%),1a10 (80% ≤ 1a10 < 100%),1b4 (20% ≤ 1b4 < 32%),1b9 (70% ≤ 1b9 < 80%),1d3 (10% ≤ 1d3 < 20%),1d7 (50% ≤ 1d7 < 60%),1c5 (20% ≤ 1c5 < 30%),1c9 (60% ≤ 1c9 < 70%),A (0% ≤ substrate protein remaining % ≤ 80%),A (0% ≤ substrate protein remaining % ≤ 80%),A (0% ≤ substrate protein remaining % ≤ 80%),B (80%< substrate protein remaining %≤ 100%),B (80%< substrate protein remaining %≤ 100%),A (0% ≤ substrate protein remaining % ≤ 80%),–,–,–,–
a5 (53% < a5 ≤ 60%),a7 (70% < a7 ≤80%),O=C1CCC(N2Cc3cc(CCCN4CCC(N5CC=C(c6cccc(Cl)c6Cl)CC5)C(F)(F)C4)ccc3C2=O)C(=O)N1 (stereo not shown),1a8 (60% ≤ 1a8 < 70%),1a10 (80% ≤ 1a10 < 100%),1b8 (60% ≤ 1b8 < 70%),1b10 (80% ≤ 1b10 ≤ 100%),1d5 (30% ≤ 1d5 < 40%),1d6 (40% ≤ 1d6 < 50%),1c8 (50% ≤ 1c8 < 60%),1c11 (80% ≤ 1c11 ≤ 100%),B (80%< substrate protein remaining %≤ 100%),B (80%< substrate protein remaining %≤ 100%),B (80%< substrate protein remaining %≤ 100%),B (80%< substrate protein remaining %≤ 100%),B (80%< substrate protein remaining %≤ 100%),A (0% ≤ substrate protein remaining % ≤ 80%),–,–,–,–
a4 (40% < a4 ≤ 53%),a7 (70% < a7 ≤80%),CC1(C)CCC(CN2CCN(C3CCN(Cc4cc(F)c5c(c4)CN(C4CCC(=O)NC4=O)C5=O)CC3(F)F)CC2)=C(c2ccc(Cl)cc2)C1 (stereo not shown),–,–,–,–,–,–,–,–,B (80%< substrate protein remaining %≤ 100%),B (80%< substrate protein remaining %≤ 100%),B (80%< substrate protein remaining %≤ 100%),B (80%< substrate protein remaining %≤ 100%),B (80%< substrate protein remaining %≤ 100%),A (0% ≤ substrate protein remaining % ≤ 80%),IV9 (40% < IV9 ≤ 50%),IV9 (40% < IV9 ≤ 50%),–,–
a6 (60% < a6 ≤ 70%),a8 (80% < a8 ≤100%),CC1(C)CCC(C(=O)N2CCN(C3CCN(CCc4ccc5c(c4)CN(C4CCC(=O)NC4=O)C5=O)CC3(F)F)CC2)=C(c2ccc(Cl)cc2)C1 (stereo not shown),–,–,–,–,–,–,–,–,A (0% ≤ substrate protein remaining % ≤ 80%),A (0% ≤ substrate protein remaining % ≤ 80%),B (80%< substrate protein remaining %≤ 100%),B (80%< substrate protein remaining %≤ 100%),B (80%< substrate protein remaining %≤ 100%),A (0% ≤ substrate protein remaining % ≤ 80%),IV9 (40% < IV9 ≤ 50%),IV9 (40% < IV9 ≤ 50%),–,–
–,–,O=C1CCC(N2Cc3ccc(CN4CCC(N5CCN(c6cccc(Cl)c6Cl)CC5)C(F)(F)C4)cc3C2=O)C(=O)N1 (stereo not shown),–,–,–,–,–,–,–,–,–,–,–,–,–,–,IV9 (40% < IV9 ≤ 50%),IV9 (40% < IV9 ≤ 50%),IV9 (40% < IV9 ≤ 50%),IV9 (40% < IV9 ≤ 50%)
a3 (30% < a3 ≤ 40%),a6 (60% < a6 ≤ 70%),O=C1CCC(N2Cc3cc(C(=O)N4CCC(N5CC=C(c6cccc(Cl)c6Cl)CC5)C(F)(F)C4)c(F)cc3C2=O)C(=O)N1 (stereo not shown),1a5 (30% ≤ 1a5 ≤ 40%),1a10 (80% ≤ 1a10 < 100%),1b5 (32% ≤ 1b5 < 42%),1b10 (80% ≤ 1b10 ≤ 100%),1d2 (5% ≤ 1d2 < 10%),1d6 (40% ≤ 1d6 < 50%),1c5 (20% ≤ 1c5 < 30%),1c11 (80% ≤ 1c11 ≤ 100%),A (0% ≤ substrate protein remaining % ≤ 80%),A (0% ≤ substrate protein remaining % ≤ 80%),A (0% ≤ substrate protein remaining % ≤ 80%),A (0% ≤ substrate protein remaining % ≤ 80%),A (0% ≤ substrate protein remaining % ≤ 80%),A (0% ≤ substrate protein remaining % ≤ 80%),–,–,–,–
a4 (40% < a4 ≤ 53%),a5 (53% < a5 ≤ 60%),O=C1CCC(N2Cc3c(ccc(CN4CCC(N5CC=C(c6cccc(Cl)c6Cl)CC5)C(F)(F)C4)c3F)C2=O)C(=O)N1 (stereo not shown),1a10 (80% ≤ 1a10 < 100%),1a10 (80% ≤ 1a10 < 100%),1b10 (80% ≤ 1b10 ≤ 100%),1b10 (80% ≤ 1b10 ≤ 100%),1d7 (50% ≤ 1d7 < 60%),1d9 (70% ≤ 1d9 < 80%),1c11 (80% ≤ 1c11 ≤ 100%),1c11 (80% ≤ 1c11 ≤ 100%),A (0% ≤ substrate protein remaining % ≤ 80%),A (0% ≤ substrate protein remaining % ≤ 80%),A (0% ≤ substrate protein remaining % ≤ 80%),A (0% ≤ substrate protein remaining % ≤ 80%),A (0% ≤ substrate protein remaining % ≤ 80%),A (0% ≤ substrate protein remaining % ≤ 80%),–,–,–,–
–,–,CC1(C)CCC(CN2CCN(C3CCN(Cc4cccc5c4CN(C4CCC(=O)NC4=O)C5=O)CC3(F)F)CC2)=C(c2ccc(Cl)cc2)C1 (stereo not shown),–,–,–,–,–,–,–,–,A (0% ≤ substrate protein remaining % ≤ 80%),B (80%< substrate protein remaining %≤ 100%),B (80%< substrate protein remaining %≤ 100%),B (80%< substrate protein remaining %≤ 100%),B (80%< substrate protein remaining %≤ 100%),A (0% ≤ substrate protein remaining % ≤ 80%),IV9 (40% < IV9 ≤ 50%),IV9 (40% < IV9 ≤ 50%),–,–
a3 (30% < a3 ≤ 40%),a7 (70% < a7 ≤80%),O=C1CCC(N2Cc3c(C(=O)N4CCC(N5CC=C(c6cccc(Cl)c6Cl)CC5)C(F)(F)C4)cccc3C2=O)C(=O)N1 (stereo not shown),1a3 (10% ≤ 1a3 < 20%),1a10 (80% ≤ 1a10 < 100%),1b4 (20% ≤ 1b4 < 32%),1b9 (70% ≤ 1b9 < 80%),1d1 (0 < 1d1 < 5%),1d6 (40% ≤ 1d6 < 50%),1c4 (10% ≤ 1c4 < 20%),1c11 (80% ≤ 1c11 ≤ 100%),A (0% ≤ substrate protein remaining % ≤ 80%),A (0% ≤ substrate protein remaining % ≤ 80%),A (0% ≤ substrate protein remaining % ≤ 80%),A (0% ≤ substrate protein remaining % ≤ 80%),A (0% ≤ substrate protein remaining % ≤ 80%),A (0% ≤ substrate protein remaining % ≤ 80%),–,–,–,–
